This passage reports activity change, negative = inhibition results from PubChem BioAssay AID1379 (National Center for Advancing Translational Sciences (NCATS), 2008).

The list shows a part of the results, in another mix than the full data. Some salts or complexes appear as unconnected parts, following the source record. The source made the active and inactive calls. The call rests on the fitted dose curve; in most records, active means well fitted inhibition curve with a large enough effect; inconclusive means small, poorly fitted or top-dose-only effect; inactive means flat fitted curve, though single readings scatter.
On the % scale 0 is the no-effect control and ±100 the full control effect.

The target in this assay is Luciferin 4-monooxygenase (Photuris pensylvanica) (UniProt Q27757). The experiment in a line: Counterscreen for Luciferase (Kinase-Glo TM) Inhibition. Further: nearly all actives have a fitted effect of over 60% in size. The settings on record: ATP luminescence, 8 min; at 38.3 µM (top of the series) unless noted. As to the method:
NCGC Assay Overview: NIH Molecular Libraries Screening Centers Network [MLSCN] NIH Chemical Genomics Center [NCGC] MLSCN Grant: None Luciferase (Kinase-Glo, Promega Corporation) was assayed for its ability to generate light using ATP and luciferin as substrates. The ATP concentration in the assay (10 uM) was within the linear range of enzyme activity for the assay conditions used.
NCGC Assay Protocol Summary: Four uL of substrate mix (final concentration, 50 mM imidazole pH 7.2, 50 mM KCl, 7 mM MgCl2, 10 uM ATP, 0.01% Tween 20, 0.05% BSA) was dispensed into white 1536 well plates. Twenty-three nL of compound was delivered by a pin tool and 2 uL of luciferase detection mix (Kinase-Glo, Promega)) was added. Following 8-minute incubation at ambient temperature, luminescence was measured by a ViewLux (Perkin Elmer) at 5 seconds exposure/plate.
As for `CN(C)CCOC(=O)C(O)(c1ccccc1)C1CCCCC1` (stereo not drawn), the activity change, negative = inhibition was inactive: 3.49%.
For the compound `Cc1ccccc1NP(C)(=O)Nc1ccccc1C`, the activity change, negative = inhibition is inactive: -1.8%.
For the compound `CCN(CCCl)Cc1ccccc1C`, the activity change, negative = inhibition is inactive: -0.567%.
For `NNC(NN)NN.n1nc(-c2nn[nH]n2)n[nH]1` the value was inactive: -2.63% [at 7.66 µM]; for `CP(=O)(Nc1ccc2c(c1)OCCO2)Oc1ccccc1` (stereo not drawn), inactive: 4.43%; for `CCOP(C)(=S)SCC(=O)NC(C)(CC)C(=O)O` (stereo not drawn), inactive: 3.05%.
On to `O=C(OCCN1CCN(CCOCc2ccccc2)CC1)C(O)(c1ccccc1)c1ccccc1`, for which the activity change, negative = inhibition is inactive: -0.348%.
Take `CP(=O)(Nc1ccccc1F)Oc1ccccc1` (stereo not drawn): the activity change, negative = inhibition was inactive: -0.858%.
In the case of `CC(C)c1ccc(OP(C)(=O)Nc2ccc(SC(F)(F)F)cc2)cc1` (stereo not drawn) it was inactive: -3.9%; in that of `CP(=O)(Nc1ccccc1)Oc1ccc(F)cc1` (stereo not drawn), inactive: -1.02%.
With `CCN(CC)CCCOC(=O)C(O)(c1ccccc1)C1CCCCC1` (stereo not drawn), the activity change, negative = inhibition was inactive: 2.58%.
`CCOC(=O)c1ccc(NP(C)(=O)Oc2ccc(F)cc2)cc1` (stereo not drawn): the activity change, negative = inhibition was inactive: 5.73%.
Consider `COc1ccc(OP(C)(=O)Nc2ccc(SC(F)(F)F)cc2)cc1` (stereo not drawn), for which the activity change, negative = inhibition is inactive: 2.69%.
Turning to `CP(=O)(Nc1ccc(Cl)cc1Cl)Oc1ccccc1` (stereo not drawn), the activity change, negative = inhibition is inactive: -1.59%.
For `CP(=O)(OCCOc1ccccc1)OCCOc1ccccc1` the value was inactive: 1.43%; for `Cc1nc2ccc3ccccc3c2o1.O=[N+]([O-])c1cc([N+](=O)[O-])c(O)c([N+](=O)[O-])c1`, inactive: 2.02%; for `COc1ccc(OP(C)(=O)Nc2ccccc2Br)cc1` (stereo not drawn), inactive: 0.888%.
Consider `Cc1cc(C)cc(OP(C)(=O)Nc2cccc(C(F)(F)F)c2)c1` (stereo not drawn), for which the activity change, negative = inhibition is inactive: -1.34%.
Regarding `COc1ccccc1OP(C)(=O)Nc1ccc(C)cc1C` (stereo not drawn), the activity change, negative = inhibition is inactive: -7.35%.
Turning to `CP(=O)(Nc1ccccn1)Oc1ccccc1` (stereo not drawn), the activity change, negative = inhibition is inactive: 0.226%.
As to `CCc1ccc(OP(C)(=O)O)cc1`, the activity change, negative = inhibition was inactive: -2.17%.
For `Cc1c(NP(C)(=O)Oc2ccc(C(C)C)cc2)c(=O)n(-c2ccccc2)n1C` (stereo not drawn), the activity change, negative = inhibition is inactive: 0.586%.
In the case of `O=[N+]([O-])c1cc([N+](=O)[O-])c(Nc2ccccn2)c([N+](=O)[O-])c1`, the activity change, negative = inhibition was inactive: -4.16%.
For `COc1ccc(OP(C)(=O)Nc2ccccn2)cc1` (stereo not drawn) the value was inactive: -0.577%.
For the compound `CN(C)CCOC(=O)C(O)(c1ccccc1)C1CCCC1` (stereo not drawn), the activity change, negative = inhibition was inactive: -3.49%.
As for `CN(C)C(=O)c1c([N+](=O)[O-])cc([N+](=O)[O-])cc1[N+](=O)[O-]`, the activity change, negative = inhibition is inactive: 1.03%.
Turning to `CC(C)(C)c1ccc(OP(C)(=O)O)cc1`, the activity change, negative = inhibition is inactive: -2.54%.
For `CP(=O)(Nc1ccc(Cl)cc1)Oc1ccc(F)cc1` (stereo not drawn) the value was inactive: -9.27%; for `OCCSCCO`, inactive: -0.102%.
Take `COc1ccccc1OP(C)(=O)Nc1c(C)n(C)n(-c2ccccc2)c1=O` (stereo not drawn): the activity change, negative = inhibition was inactive: -0.196%.
Turning to `CCc1ccc(OP(C)(=O)Nc2cccnc2)cc1` (stereo not drawn), the activity change, negative = inhibition is inactive: -0.254%.
For `CP(=O)(Oc1ccccc1)N1CCOC1=O` (stereo not drawn) the value was inactive: -3.1%; for `COc1ccc(OP(C)(=O)Nc2ccc(Br)cc2)cc1` (stereo not drawn), inactive: -1.81%; for `CCN(CC)CC(O)COC(=O)C(O)(c1ccccc1)C1CCCCC1` (stereo not drawn), inactive: -3.04%.
For `N#[O+].[C-]#N.[C-]#N.[C-]#N.[C-]#N.[C-]#N.[Fe+2].[Na+].[Na+]` the value was inactive: 2.26%.
With `C/C1=C2N=C(/C=C3N=C(/C(C)=C4\[N-][C@@](C)([C@H]5N=C1[C@@](C)(CCC(=O)NC[C@H](C)OP(=O)([O-])O[C@@H]1[C@H](O)[C@H](n6cnc7cc(C)c(C)cc76)O[C@@H]1CO)[C@@H]5CC(N)=O)[C@](C)(CC(N)=O)[C@H]4CCC(N)=O)[C@@](C)(CC(N)=O)[C@@H]\3CCC(N)=O)C(C)(C)[C@@H]/2CCC(N)=O.[C-]#N.[Co+3]`, the activity change, negative = inhibition is inactive: -7.65% [at 17.1 µM].
For `CCOC(=O)c1ccc(NP(C)(=O)Oc2ccc(Cl)cc2)cc1` (stereo not drawn) the value was inactive: 0.1%; for `CP(=O)(OC12CC3CC(CC(C3)C1)C2)OC12CC3CC(CC(C3)C1)C2`, inactive: -4.86%.
For `CP(=O)(Nc1ccccc1Br)Oc1ccccc1` (stereo not drawn), the activity change, negative = inhibition was inactive: -0.819%.
For `COc1ccccc1OP(C)(=O)Nc1ccccc1` (stereo not drawn) the value was inactive: 8.59%; for `CP(=S)(Nn1cnnc1)Oc1ccccc1` (stereo not drawn), inactive: 2.58%.
Regarding `N1=C(c2nnc(-c3nn[nH]n3)nn2)NNN1`, the activity change, negative = inhibition was inactive: -9.38% [at 7.66 µM].
For the compound `CP(=O)(Nc1ccccn1)Oc1ccc(Cl)cc1` (stereo not drawn), the activity change, negative = inhibition was inactive: -4.91%.
For `CCOC(=O)c1ccc(NP(C)(=O)Oc2ccc(OC)cc2)cc1` (stereo not drawn), the activity change, negative = inhibition was inactive: 2%.
`CCOP(C)(=S)SCC(=O)NC(C)C(=O)O` (stereo not drawn): the activity change, negative = inhibition is inactive: 5.4%.
Take `Cc1cc(C)cc(OP(C)(=O)Nc2ccc(SC(F)(F)F)cc2)c1` (stereo not drawn): the activity change, negative = inhibition is inactive: 1.14%.
In the case of `CP(=O)(NC(=O)Nc1ccccc1)Oc1ccccc1` (stereo not drawn) it was inactive: -2.61%; in that of `[Au].[Au].c1ccc([PH+](c2ccccc2)c2ccccc2)cc1.c1ccc([PH+](c2ccccc2)c2ccccc2)cc1.n1n[nH]c(-c2nnn[nH]2)n1`, inactive: -6.29% [at 7.66 µM]; in that of `CP(=O)(Oc1ccccc1)OC(c1ccccc1)C(F)(F)F` (stereo not drawn), inactive: -1.91%.
For `Cc1cccc(C)c1OP(C)(=O)Nc1ccc(SC(F)(F)F)cc1` (stereo not drawn) the value was inactive: 1.68%; for `CCN(CC)CCCOC(=O)C(O)(c1ccccc1)c1ccccc1`, inactive: -5.23%.
In the case of `Cc1cc(C)cc(OP(C)(N)=O)c1` (stereo not drawn), the activity change, negative = inhibition was inactive: -0.838%.
With `COc1ccc(OP(C)(=O)Nc2cccc(F)c2)cc1` (stereo not drawn), the activity change, negative = inhibition was inactive: 2.39%.
As for `COc1ccccc1OP(C)(=O)Nc1cc(Cl)ccc1C` (stereo not drawn), the activity change, negative = inhibition was inactive: 2.33%.
As for `Cc1ccc(NP(C)(=O)Oc2ccccc2)c(C)c1` (stereo not drawn), the activity change, negative = inhibition was inactive: -3.86%.
Regarding `COc1ccccc1OP(C)(=O)Nc1ccc(C)cc1` (stereo not drawn), the activity change, negative = inhibition is inactive: -0.954%.
For `CCOC(=O)c1ccc(NP(C)(=O)Oc2ccccc2)cc1` (stereo not drawn), the activity change, negative = inhibition is inactive: 2.74%.
On to `O=[N+]([O-])c1ccc2c(c1)C=Nc1ccccc1O2`, for which the activity change, negative = inhibition was inactive: -1.04%.
Turning to `Cc1cccc(C)c1OP(C)(N)=O` (stereo not drawn), the activity change, negative = inhibition was inactive: 1.07%.
On to `CC(C)(C)c1ccc(OP(C)(=O)Nc2ccc(SC(F)(F)F)cc2)cc1` (stereo not drawn), for which the activity change, negative = inhibition was inactive: -3.31%.
Regarding `CC1=NCCc2c1[nH]c1ccccc21.O=[N+]([O-])c1cc([N+](=O)[O-])c(O)c([N+](=O)[O-])c1`, the activity change, negative = inhibition was inactive: 1.91%.
For `O=[N+]([O-])OCC(CO[N+](=O)[O-])(CO[N+](=O)[O-])CO[N+](=O)[O-]`, the activity change, negative = inhibition was inactive: -2.72% [at 39.9 µM].
Consider `Cc1ccc(C)c(NP(C)(=O)Oc2ccccc2)c1` (stereo not drawn), for which the activity change, negative = inhibition is inactive: 2.41%.
In the case of `Cc1cc(C)cc(OP(C)(=O)Nc2ccccn2)c1` (stereo not drawn) it was inactive: 0.488%; in that of `CP(=O)(Nc1cccc(Br)c1)Oc1ccccc1` (stereo not drawn), inactive: 0.0036%.
As for `CCOC(=O)c1ccc(NP(C)(=O)Oc2cc(C)cc(C)c2)cc1` (stereo not drawn), the activity change, negative = inhibition was inactive: -0.873%.
For the compound `Cc1cc(C)cc(OP(C)(=O)Nc2ccc(C)cc2C)c1` (stereo not drawn), the activity change, negative = inhibition was inactive: -2.16%.
For `Cc1nc2ccc3ccccc3c2s1.O=[N+]([O-])c1cc([N+](=O)[O-])c(O)c([N+](=O)[O-])c1`, the activity change, negative = inhibition was inactive: -3.19%.
`O=[N+]([O-])c1cc([N+](=O)[O-])c(-n2nnc3ccccc32)c([N+](=O)[O-])c1`: the activity change, negative = inhibition is inactive: 9.42%.
In the case of `CCCOc1ccc(NP(C)(=O)Oc2ccc(Cl)cc2)cc1` (stereo not drawn) it was inactive: -0.409%; in that of `CP(=O)(Nc1ccc(SC(F)(F)F)cc1)Oc1ccccc1` (stereo not drawn), inactive: 3.91%.
In the case of `COc1ccccc1OP(C)(=O)Nc1c(C)cccc1C` (stereo not drawn), the activity change, negative = inhibition is inactive: -0.143%.
For `CN1CCCCC1COC(=O)C1(O)c2ccccc2CCc2ccccc21` (stereo not drawn), the activity change, negative = inhibition is inactive: -3.96%.
